According to ChEMBL document CHEMBL3576850 (J Nat Prod, 2015):

Legend:
[1] = Selectivity ratio for recombinant his-tagged methicillin-resistant Staphylococcus aureus pyruvate kinase over recombinant his-tagged human pyruvate kinase M2
[2] = Selectivity ratio for recombinant his-tagged methicillin-resistant Staphylococcus aureus pyruvate kinase over recombinant his-tagged human pyruvate kinase M1
[3] = Selectivity ratio for recombinant his-tagged methicillin-resistant Staphylococcus aureus pyruvate kinase over recombinant his-tagged human pyruvate kinase L
[4] = Selectivity ratio for recombinant his-tagged methicillin-resistant Staphylococcus aureus pyruvate kinase over recombinant his-tagged human pyruvate kinase R

Measured: Selectivity ratio

O=C1NC[C@@H](c2c[nH]c3cc(Br)ccc23)N[C@H]1c1c[nH]c2cc(Br)ccc12 (relative stereo) [CIS-3,4-DIHYDROHAMACANTHIN B]
166: all assays above
